These are literature values, as cited in patent US10927398B2, “Compositions for CYP450 phenotyping using saliva samples” (Concordia University, Inc., priority 2015, dated 2021).

This data set concerns CYP450 enzymes. As to conditions: cited from earlier work.

The structures appear in SMILES notation.

Take `CN(C)CCCN1c2ccccc2CCc2ccccc21` [Imipramine]: the METABOLISM is listed as 2C19, 2D6.
